Consider two compounds from ChEMBL document CHEMBL1136688, “Synthesis and SAR of aminoalkoxy-biaryl-4-carboxamides: novel and selective histamine H3 receptor antagonists” (Bioorg Med Chem Lett, 2003).

By UniProt entry, the sequences of proteins in these tests, tags left out. Where a name states a change or a piece, a line headed by the entry shows the natural chain unless it says otherwise.
UniProt Q9QYN8: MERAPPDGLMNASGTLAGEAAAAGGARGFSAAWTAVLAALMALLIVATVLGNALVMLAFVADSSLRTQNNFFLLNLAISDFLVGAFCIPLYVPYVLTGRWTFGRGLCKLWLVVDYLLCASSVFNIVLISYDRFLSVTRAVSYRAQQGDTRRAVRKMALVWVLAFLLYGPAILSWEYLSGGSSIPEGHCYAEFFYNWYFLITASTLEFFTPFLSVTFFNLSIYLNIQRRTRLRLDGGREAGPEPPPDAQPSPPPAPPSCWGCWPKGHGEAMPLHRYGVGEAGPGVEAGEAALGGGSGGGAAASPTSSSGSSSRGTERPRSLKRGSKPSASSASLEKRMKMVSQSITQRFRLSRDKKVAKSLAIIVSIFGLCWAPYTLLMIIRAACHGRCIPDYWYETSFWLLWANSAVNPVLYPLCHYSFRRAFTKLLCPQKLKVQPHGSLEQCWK

The structures appear in SMILES notation.

In assay [1] the target is T1, Histamine H3 receptor (Rattus norvegicus, UniProt Q9QYN8). Description: Affinity towards rat cortical H3 receptor using radioligand binding assay. The following applies: read-out: pA2 (converted).
Assay [2] has as its target T1, Histamine H3 receptor. Description: Binding affinity towards rat cortical H3 receptor.

The Ki is a dissociation constant, usually derived from enzyme kinetics or from competition with a known ligand.

As to `C[C@H]1CC[C@H](C)N1CCCOc1ccc(-c2ccc(C(=O)N3CCOCC3)cc2)cc1` [A-349,821], the Kb in assay [1] was 1.95 nM. Compound `C[C@H]1CC[C@H](C)N1CCCOc1ccc(-c2ccc(C(=O)N3[C@@H](C)CC[C@@H]3C)cc2)cc1` had a Ki in assay [2] of 4.17 nM.
